Patent US8187832B2, “Method of detecting an amount of a cholinesterase inhibitor in a sample” (dated 2012)

Protein sequences, listed by entry. Tags and fused reporters are not part of them. Residues count along the entry.
UniProt O42275, 24-633 limits assumed: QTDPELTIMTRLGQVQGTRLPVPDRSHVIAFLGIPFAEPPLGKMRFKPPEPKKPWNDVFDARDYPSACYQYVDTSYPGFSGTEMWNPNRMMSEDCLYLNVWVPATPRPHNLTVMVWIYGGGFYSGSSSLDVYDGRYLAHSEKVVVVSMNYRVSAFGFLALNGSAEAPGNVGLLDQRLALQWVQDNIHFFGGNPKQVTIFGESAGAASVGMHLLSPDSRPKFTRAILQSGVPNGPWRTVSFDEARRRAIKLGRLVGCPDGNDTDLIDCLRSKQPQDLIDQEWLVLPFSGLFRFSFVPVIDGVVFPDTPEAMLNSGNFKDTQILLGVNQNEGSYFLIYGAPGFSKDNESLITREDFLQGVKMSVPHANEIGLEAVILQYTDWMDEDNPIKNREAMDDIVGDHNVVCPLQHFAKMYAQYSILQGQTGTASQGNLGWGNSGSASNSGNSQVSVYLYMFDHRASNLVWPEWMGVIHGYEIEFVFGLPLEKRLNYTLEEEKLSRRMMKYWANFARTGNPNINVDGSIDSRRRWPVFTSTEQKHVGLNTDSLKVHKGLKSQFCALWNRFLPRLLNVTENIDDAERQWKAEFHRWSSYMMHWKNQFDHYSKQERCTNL

Biological target: Immobilised AChE (ImmAChE) (Electrophorus electricus, UniProt O42275)
Assay: Current test response to sarin in human blood in the presence of pyridostigmine or 2-pralidoxime chloride
Details: oxime reactivator as treatment drug

For Pyridine-2-aldoxime methochloride, the “whole blood concentration up to which detection of OP cholinesterase inhibitors is permitted” value was “up to 0.266 mM”.
